The subject of test [1] is H1975 (EGFR T790M/L858R) cell proliferation. The test is described as follows: H1975 proliferation assay (Cell Titer-Glo). The test is classed as cell-based. The settings on record: Homo sapiens, NCI-H1975 cells, 72 hour, read-out: H1975 antiproliferative EC50.
The next test deals with EGFR T790M L858R (Homo sapiens, UniProt P00533, L858R/T790M). The test is described as follows: biochemical. As to conditions: EGFR(T790M/L858R) Ki (μM), 5 μM ATP, 30 min, room temperature; apparent Ki (Morrison) converted by Cheng-Prusoff, Km of ATP 1.3 μM.

The chains behind the UniProt entries cited, without tags or fusion partners. Residues count along the entry.
UniProt P00533, 25-1210 T790M/L858R limits assumed: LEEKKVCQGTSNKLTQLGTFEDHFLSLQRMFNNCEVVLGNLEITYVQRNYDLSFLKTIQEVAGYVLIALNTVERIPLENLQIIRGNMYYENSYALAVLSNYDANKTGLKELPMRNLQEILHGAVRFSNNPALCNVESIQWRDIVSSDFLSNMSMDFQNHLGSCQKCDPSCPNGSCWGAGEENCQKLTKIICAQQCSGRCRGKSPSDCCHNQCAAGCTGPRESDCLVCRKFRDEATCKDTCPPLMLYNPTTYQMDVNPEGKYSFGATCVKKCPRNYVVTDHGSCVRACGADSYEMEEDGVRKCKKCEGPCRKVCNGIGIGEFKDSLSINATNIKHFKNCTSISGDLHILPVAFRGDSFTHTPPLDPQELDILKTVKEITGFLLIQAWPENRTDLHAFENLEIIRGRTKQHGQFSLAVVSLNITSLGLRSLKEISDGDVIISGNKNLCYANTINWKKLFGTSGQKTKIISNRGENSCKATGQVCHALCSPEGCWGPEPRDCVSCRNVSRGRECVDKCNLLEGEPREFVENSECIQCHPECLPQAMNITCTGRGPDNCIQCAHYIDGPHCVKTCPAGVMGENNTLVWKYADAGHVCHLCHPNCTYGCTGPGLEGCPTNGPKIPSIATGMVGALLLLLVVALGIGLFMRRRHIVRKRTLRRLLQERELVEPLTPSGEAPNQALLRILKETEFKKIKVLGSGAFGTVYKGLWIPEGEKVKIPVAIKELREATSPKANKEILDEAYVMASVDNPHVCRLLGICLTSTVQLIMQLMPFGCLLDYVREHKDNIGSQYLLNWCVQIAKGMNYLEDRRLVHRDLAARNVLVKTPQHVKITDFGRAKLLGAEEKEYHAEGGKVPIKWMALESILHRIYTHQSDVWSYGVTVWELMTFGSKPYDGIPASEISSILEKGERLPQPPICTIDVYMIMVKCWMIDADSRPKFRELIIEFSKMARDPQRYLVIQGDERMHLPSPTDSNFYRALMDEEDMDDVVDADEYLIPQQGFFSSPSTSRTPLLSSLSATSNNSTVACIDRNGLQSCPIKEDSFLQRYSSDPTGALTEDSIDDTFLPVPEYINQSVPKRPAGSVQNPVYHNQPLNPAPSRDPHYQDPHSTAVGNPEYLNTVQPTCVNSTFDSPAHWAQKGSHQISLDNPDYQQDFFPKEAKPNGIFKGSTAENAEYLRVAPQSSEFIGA

SMILES strings stand for the structures. pEC50: −log10 of the molar value.

A word on the pEC50: it is the negative decadic logarithm of the EC50, by convention in mol/L. For `CCC(C)n1cc(C(=O)NC2CCOCC2)c2cnc(Nc3ccnc(N4CCC(O)C(C)(C)C4)n3)cc21` (mixture of isomers) [Example 383, 1-(sec-butyl)-6-((2-(4-hydroxy-3,3-dimethylpiperidin-1-yl)pyrimidin-4-yl)amino)-N-(tetrahydro-2H-pyran-4-yl)-1H-pyrrolo[3,2-c]pyridine-3-carboxamide], in test [1], the pEC50 was 5.90. In addition, the Ki on EGFR T790M L858R is 0.000842 µM.

In the case of `C[C@H](n1c([C@@H](C)O)nc2cnc(Nc3ccnc(N4CCC(O)C(F)C4)n3)cc21)C(F)(F)F` (mixture of isomers) [Example 296, cis-3-Fluoro-1-{4-[2-((R)-1-hydroxyethyl)-1-((S)-2,2,2-trifluoro-1-methylethyl)-1H-imidazo[4,5-c]pyridin-6-ylamino]pyrimidin-2-yl}piperidin-4-ol], in test [1], the pEC50 is 6.11. Besides, the Ki at EGFR T790M L858R amounted to 0.00225 µM.

Consider `CC(C)n1c(C2CCCO2)nc2cnc(Nc3ccnc(-c4cnn(S(=O)(=O)C5CC5)c4)n3)cc21` (racemic) [Example 565, (±)-[2-(1-Cyclopropanesulfonyl-1H-pyrazol-4-yl)-pyrimidin-4-yl]-[1-isopropyl-2-(tetrahydro-furan-2-yl)-1H-imidazo[4,5-c]pyridin-6-yl]amine], for which, in test [1], the pEC50 is 5.60. Further, the Ki at EGFR T790M L858R was 0.00879 µM.

For the compound `CCNC(=O)c1cn(C(C)CC)c2cc(Nc3ccnc(N4CC[C@@H](O)[C@@H](F)C4)n3)ncc12` (single isomer, unassigned) [Example 369], in test [1], the pEC50 is 6.24. In addition, the Ki at EGFR T790M L858R worked out at 0.00163 µM.

Take `CCC(C)n1cc(C(=O)NC2CCOCC2)c2cnc(Nc3ccnc(N4CC[C@@H](OC)[C@@H](F)C4)n3)cc21` (single isomer, unassigned) [Example 376]: the pEC50 in test [1] is 6.86. On EGFR T790M L858R, the Ki was 0.000695 µM.

With `CCC(C)n1cc(C(=O)NC2CCOCC2)c2cnc(Nc3ccnc(-c4cnn(S(=O)(=O)C5CC5)c4)n3)cc21` (single isomer, unassigned; (-)) [Example 322, (−)-1-(sec-butyl)-6-((2-(1-(cyclopropylsulfonyl)-1H-pyrazol-4-yl)pyrimidin-4-yl)amino)-N-(tetrahydro-2H-pyran-4-yl)-1H-pyrrolo[3,2-c]pyridine-3-carboxamide], in test [1], the pEC50 is 6.31. Also, at EGFR T790M L858R, the Ki was 0.00101 µM.

`COC1CCN(c2nccc(Nc3cc4c(cn3)nc(C)n4C(C)C)n2)CC1` [Example 5, (1-Isopropyl-2-methyl-1H-imidazo[4,5-c]pyridin-6-yl)-[2-(4-methoxypiperidin-1-yl)pyrimidin-4-yl]amine]: the pEC50 in test [1] is 5.15. The Ki on EGFR T790M L858R turned out to be 0.0177 µM.

With `COC1CCN(c2nccc(Nc3cc4c(cn3)nc(COCCN(C)C)n4C(C)C)n2)CC1` [Example 8, [2-(2-Dimethylaminoethoxymethyl)-1-isopropyl-1H-imidazo[4,5-c]pyridin-6-yl]-[2-(4-methoxypiperidin-1-yl)pyrimidin-4-yl]amine], in test [1], the pEC50 is 5.20. Further, the Ki at EGFR T790M L858R worked out at 0.0244 µM.

`CC(C)n1cc(C(N)=O)c2cnc(Nc3ccnc(-c4cnn(S(=O)(=O)C5CC5)c4)n3)cc21` [Example 51, 6-((2-(1-(Cyclopropylsulfonyl)-1H-pyrazol-4-yl)pyrimidin-4-yl)amino)-1-isopropyl-1H-pyrrolo[3,2-c]pyridine-3-carboxamide]: in test [1], the pEC50 is 5.91. Moreover, the Ki on EGFR T790M L858R amounted to 0.001 µM.

Regarding `CCNC(=O)c1cn(C(C)C)c2cc(Nc3ccnc(N4CCC(OC)CC4)n3)ncc12` [Example 57, N-Ethyl-1-isopropyl-6-((2-(4-methoxypiperidin-1-yl)pyrimidin-4-yl)amino)-1H-pyrrolo[3,2-c]pyridine-3-carboxamide], the negative-log EC50 (pEC50) in test [1] was 5.53. In addition, the Ki on EGFR T790M L858R came out at 0.0054 µM.

Consider `COC1CCN(c2nccc(Nc3cc4c(cn3)c(-c3nnc(C)o3)cn4C(C)C)n2)CC1` [Example 59, 1-Isopropyl-N-(2-(4-methoxypiperidin-1-yl)pyrimidin-4-yl)-3-(5-methyl-1,3,4-oxadiazol-2-yl)-1H-pyrrolo[3,2-c]pyridin-6-amine], for which, in test [1], the negative logarithm of the EC50 (pEC50) is 5.35. For the same compound, at EGFR T790M L858R, the Ki is 0.0119 µM.

Take `COC1CCN(c2nccc(Nc3cc4c(cn3)nc(C(F)F)n4C(C)C)n2)CC1` [Example 110, 2-(difluoromethyl)-1-isopropyl-N-(2-(4-methoxypiperidin-1-yl)pyrimidin-4-yl)-1H-imidazo[4,5-c]pyridin-6-amine]: the pEC50 in test [1] is 5.47. The Ki on EGFR T790M L858R was determined as 0.0429 µM.

`COC1CCN(c2nccc(Nc3cc4c(cn3)c(C(N)=O)cn4C(C)C)n2)CC1` [Example 115, 1-isopropyl-6-((2-(4-methoxypiperidin-1-yl)pyrimidin-4-yl)amino)-1H-pyrrolo[3,2-c]pyridine-3-carboxamide]: the pEC50 in test [1] was 5.47. Moreover, the Ki at EGFR T790M L858R amounted to 0.004 µM.

`COCC(C)(C)n1c(C)nc2cnc(Nc3ccnc(N4CCC(OC)CC4)n3)cc21` [Example 164, [1-(2-Methoxy-1,1-dimethylethyl)-2-methyl-1H-imidazo[4,5-c]pyridin-6-yl]-[2-(4-methoxypiperidin-1-yl)pyrimidin-4-yl]amine]: in test [1], the pEC50 was 5.05. Besides, the Ki on EGFR T790M L858R amounted to 0.0626 µM.

As for `CC(C)n1c(CO)nc2cnc(Nc3ccnc(N4CC[C@@](C)(O)[C@H](F)C4)n3)cc21` [Example 675], at EGFR T790M L858R, the Ki was 0.0372 µM.

Take `C[C@H](n1c([C@@H](C)O)nc2cnc(Nc3ccnc(N4CC[C@](C)(O)[C@H](F)C4)n3)cc21)C(F)(F)F` [Example 676]: the Ki on EGFR T790M L858R turned out to be 0.00358 µM.

For the compound `Cc1nc2cnc(Nc3ccnc(N4CCC(F)(F)CC4)n3)cc2n1C(C)C` [Example 677], the Ki on EGFR T790M L858R came out at 0.0783 µM.

Consider `Cc1nc2cnc(Nc3ccnc(N4CC[C@@H](C#N)C4)n3)cc2n1C(C)C` [Example 678], for which, on EGFR T790M L858R, the Ki is 0.141 µM.

With `Cc1nc2cnc(Nc3ccnc(N4CC[C@H](C#N)C4)n3)cc2n1C(C)C` [Example 679], the Ki at EGFR T790M L858R worked out at 0.112 µM.

Turning to `Cc1nc2cnc(Nc3ccnc(N4CC[C@@H](O)C4)n3)cc2n1C(C)C` [Example 680], the Ki on EGFR T790M L858R stood at 0.297 µM.

In the case of `Cc1nc2cnc(Nc3ccnc(N4CC[C@H](O)C4)n3)cc2n1C(C)C` [Example 681], the Ki on EGFR T790M L858R came out at 0.165 µM.

Take `Cc1nc2cnc(Nc3ccnc(N4CCC(C)(O)CC4)n3)cc2n1C(C)C` [Example 682]: the Ki on EGFR T790M L858R came to 0.0436 µM.

On to `C[C@H](n1c([C@@H](C)O)nc2cnc(Nc3ccnc(N4CCC(C)(O)CC4)n3)cc21)C(F)(F)F` [Example 683], for which the Ki on EGFR T790M L858R amounted to 0.00511 µM.

`CO[C@H]1CCN(c2nccc(Nc3cc4c(cn3)nc([C@H](C)O)n4[C@@H](C)C(F)(F)F)n2)C[C@H]1F` [Example 684]: the Ki on EGFR T790M L858R amounted to 0.00274 µM.

Regarding `C[C@H](O)c1nc2cnc(Nc3ccnc(N4CC[C@@H](O)[C@@H](F)C4)n3)cc2n1[C@@H](C)C(F)(F)F` [Example 685], the Ki on EGFR T790M L858R was 0.00558 µM.

Consider `C[C@H](O)c1nc2cnc(Nc3ccnc(N4CC[C@H](O)[C@H](F)C4)n3)cc2n1[C@@H](C)C(F)(F)F` [Example 686], for which, on EGFR T790M L858R, the Ki worked out at 0.00577 µM.

With `C[C@@H](O)c1nc2cnc(Nc3ccnc(N4CC[C@@H](O)[C@@H](F)C4)n3)cc2n1[C@H](C)C(F)(F)F` [Example 687], at EGFR T790M L858R, the Ki came out at 0.0159 µM.

For the compound `C[C@@H](O)c1nc2cnc(Nc3ccnc(N4CC[C@H](O)[C@H](F)C4)n3)cc2n1[C@H](C)C(F)(F)F` [Example 688], the Ki on EGFR T790M L858R was determined as 0.0208 µM.

Regarding `C[C@H](O)c1nc2cnc(Nc3ccnc(N4CC[C@@H](O)[C@@H](F)C4)n3)cc2n1[C@H](C)C(F)(F)F` [Example 689], the Ki on EGFR T790M L858R is 0.0464 µM.

As for `C[C@H](O)c1nc2cnc(Nc3ccnc(N4CC[C@H](O)[C@H](F)C4)n3)cc2n1[C@H](C)C(F)(F)F` [Example 690], the Ki on EGFR T790M L858R amounted to 0.0609 µM.

Turning to `CC(C)n1c(CO)nc2cnc(Nc3ccnc(N4C[C@@H]5C[C@H]4CO5)n3)cc21` [Example 691], at EGFR T790M L858R, the Ki came out at 0.219 µM.

On to `CC(C)n1c(CO)nc2cnc(Nc3ccnc(N4CC5CC4C5)n3)cc21` [Example 692], for which the Ki at EGFR T790M L858R was 0.119 µM.

For the compound `CC(C)n1c(CO)nc2cnc(Nc3ccnc(N4CCC5(CC4)CNC(=O)CO5)n3)cc21` [Example 693], the Ki at EGFR T790M L858R is 0.0976 µM.

Consider `O=C1CC(n2c(CO)nc3cnc(Nc4ccnc(-c5cnn(S(=O)(=O)C6CC6)c5)n4)cc32)CN1` (centres unmarked) [Example 694], for which the Ki on EGFR T790M L858R was 0.993 µM.

Consider `COCCC(C)(C)n1c(CO)nc2cnc(Nc3ccnc(-c4cnn(S(=O)(=O)C5CC5)c4)n3)cc21` [Example 695], for which the Ki on EGFR T790M L858R was determined as 0.0418 µM.

With `CC(CC(F)(F)F)n1c(CO)nc2cnc(Nc3ccnc(-c4cnn(S(=O)(=O)C5CC5)c4)n3)cc21` (centres unmarked) [Example 696], the Ki on EGFR T790M L858R amounted to 0.0101 µM.

On to `CC1CCC(n2c(CO)nc3cnc(Nc4ccnc(-c5cnn(S(=O)(=O)C6CC6)c5)n4)cc32)C1` (centres unmarked) [Example 697], for which, on EGFR T790M L858R, the Ki turned out to be 0.0198 µM.

With `CC1CC1n1c(CO)nc2cnc(Nc3ccnc(-c4cnn(S(=O)(=O)C5CC5)c4)n3)cc21` (centres unmarked) [Example 698], the Ki on EGFR T790M L858R came to 0.0106 µM.

Turning to `CO[C@@H]1CCN(c2nccc(Nc3cc4c(cn3)nc(CO)n4C(C)C)n2)C[C@H]1C` [Example 699], at EGFR T790M L858R, the Ki was 0.0659 µM.

For `CCC(C)n1cc(C(=O)NC2COCCOC2)c2cnc(Nc3ccnc(-c4cnn(S(=O)(=O)C5CC5)c4)n3)cc21` (centres unmarked) [Example 700], the Ki on EGFR T790M L858R was 0.0017 µM.

As to `C[C@H](n1c([C@@H](C)O)nc2cnc(Nc3ccnc(N4C[C@@H](F)[C@@H](O)[C@@H](F)C4)n3)cc21)C(F)(F)F` [Example 701], the Ki on EGFR T790M L858R amounted to 0.00235 µM.

Consider `CC(C)n1c(CO)nc2cnc(Nc3ccnc(N4CC[C@H](O)[C@@](C)(F)C4)n3)cc21` [Example 702], for which, on EGFR T790M L858R, the Ki was determined as 0.0912 µM.

For the compound `CCC(C)n1cc(C(=O)NCCO)c2cnc(Nc3ccnc(-c4cnn(S(=O)(=O)C5CC5)c4)n3)cc21` (centres unmarked) [Example 703], at EGFR T790M L858R, the Ki was determined as 0.00264 µM.

As to `CCC(C)n1cc(C(=O)NCC(F)(F)F)c2cnc(Nc3ccnc(-c4cnn(S(=O)(=O)C5CC5)c4)n3)cc21` (centres unmarked) [Example 704], the Ki on EGFR T790M L858R is 0.00344 µM.

Consider `CCC(C)n1cc(C(=O)NC2CCC(O)CC2)c2cnc(Nc3ccnc(-c4cnn(S(=O)(=O)C5CC5)c4)n3)cc21` (centres unmarked) [Example 705], for which the Ki on EGFR T790M L858R was 0.00251 µM.

Source of the values: patent US9890152B2 (Genentech, Inc., priority 2012, dated 2018).
